Earlier results as cited in US7655374B2, “Fixing liquid, toner fixing method and apparatus, and image forming method and apparatus” (Ricoh Company, Ltd., priority 2005, dated 2010).

Conditions: in vivo, po

Substance	LD50 [mg/kg]
diethoxyethyl succinate	5000
dimethylsiloxane	15000
